Laboratory results as given in ChEMBL document CHEMBL1134790, “Design, synthesis, and evaluation of novel A2A adenosine receptor agonists” (J Med Chem, 2001).

Chains of the proteins cited; added tags and fusions are not shown.
UniProt P25099, whole entry: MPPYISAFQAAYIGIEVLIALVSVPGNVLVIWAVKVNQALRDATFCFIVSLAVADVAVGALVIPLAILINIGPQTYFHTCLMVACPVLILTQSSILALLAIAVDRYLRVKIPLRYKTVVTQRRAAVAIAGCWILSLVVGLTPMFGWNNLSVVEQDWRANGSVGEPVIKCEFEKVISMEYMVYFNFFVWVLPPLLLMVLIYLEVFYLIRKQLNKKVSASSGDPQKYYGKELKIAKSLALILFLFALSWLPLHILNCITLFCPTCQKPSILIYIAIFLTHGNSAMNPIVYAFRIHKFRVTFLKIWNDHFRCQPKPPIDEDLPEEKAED

Target: Adenosine receptor A1 (Rattus norvegicus, UniProt P25099)
Assay: biochemical

Ki: 1800 nM
Structure (SMILES): CCNC(=O)[C@H]1O[C@@H](n2cnc3c(N)nc(NCCc4ccc(CCC(=O)O)cc4)nc32)[C@H](O)[C@@H]1O [CGS-21680]
